Assay results: US20230235286A1, “MRNA TRANSFECTION OF IMMUNE CELLS” (Carisma Therapeutics Inc., priority 2020, published 2023)

Experiments:
[1] = system: human macrophages; experiment: M1/M2 marker expression on CAR macrophages by flow cytometry; assay type: cell-based
Description: (§1) After the transfection of CAR mRNA, macrophages were cultured in macrophage culture media with 10-300 ng/mL of recombinant human IFN-α, IFN-β, or IFN-γ (peprotech) for 4 to 24 hours, as indicated. IFN containing media was washed off after the indicated time. IFN-primed CAR macrophages were used for further analysis.
(§2) M1/M2 markers on primary human macrophages were detected with the following panel: Anti-CD11B PE (Biolegend, 301306), Anti-CD80 BV605 (Biolegend, 305225), Anti-CD86 BV711 (Biolegend, 305440), Anti CD206 BV421 (Biolegend, 321126), Anti CD163 APC-CY7 (Biolegend, 333622), anti HLA-DR BV785 (Biolegend, 307642), Anti HLA ABC PE/CY7 (Biolegend, 311430) and Live/Dead Fixable Aqua Dead Cell Stain Kit. Cytokine production (IL12, IFN-γ, TNF-α, IL6, IL8, IL1b, MCP-1, IL10, IL4, IL13, and other human cytokines) was evaluated in supernatant collected from macrophages (control or CAR) treated as described below using the MSD instrument per manufacturers recommendations (Meso Scale Discovery). In some cases, macrophages were co-cultured with antigen-bearing target cells at indicated effector to target ratios.
Human macrophages were electroporated with HER2 CAR mRNA comprising m6AGCap1 and PsU modifications. Cells were cultured with cytokines that induce an M1 phenotype such as IFN-alpha, IFN-beta, IFN-gamma, IFN-gamma plus lipopolysaccharide (LPS), TNF-alpha, IL-6 or a STING ligand (STING-L) for up to 48 hours and then cytokines were washed off and fresh media was added. CAR expression and M1 marker expression were measured on days 2 and 7 after transfection. Fluorescent labeled HER2+ breast cancer cells (CRL2351) were co-cultured with HER2 CAR macrophages two days after the macrophages were transfected. Cancer cell growth was monitored via its fluorescence on an Incucyte live imaging microscope every four hours. The Effector (CAR macrophage) to Target (cancer cell) ratio was 5:1.
In order to validate the effect of IFN-β treatment on improved CAR expression, and to optimize the IFN-β concentration, macrophages transfected with M6AGCap1/PsU modified mRNA were treated with 0, 3, 10, 30, or 100 ng/mL IFN-β for 4 hours and the viability, CAR percentage, and CAR MFI were evaluated on day 4 and day 7 post electroporation.
Given that macrophage phenotype is considered plastic, and immunosuppressive cytokines such as IL-10 are known to induce an M2 phenotype, the impact of IL-10 treatment on IFN-β treated or untreated HER2 CAR mRNA transfected macrophages was evaluated.
Additional studies were performed to determine if treatment with interferons could further improve CAR mRNA persistence in macrophages and if CAR macrophage functionality could be extended. Human macrophages were electroporated with 300 nM CAR mRNA comprising m6AGCap1 and PsU modifications. Cells were cultured with 20 ng/mL IFNs for 24 hours and then the cells were washed to remove cytokines. CAR expression was detected by Flow Cytometry (Attune) on day 2 after transfection. Cells were then co-cultured with a Nuc-Light labeled, HER2+ breast cancer cell line (CRL2351) at the Effector to Target ratio of 3:1. Cancer cell growth was monitored via its fluorescence on an Incucyte live imaging microscope. CAR expression and M1 markers in macrophages were detected by Flow Cytometry (Attune) on day 7 after transfection.

[2] = system: human macrophages; experiment: CAR expression on macrophages by flow cytometry; assay type: cell-based; conditions: for CAR expression: versus control media, IFN-α or IFN-γ
[3] = system: human macrophages; experiment: Cytokine secretion of CAR macrophages co-cultured with HER2+ breast cancer cells (MSD); assay type: cell-based; conditions: supernatant 48 hours after co-culture, E:T 3:1
From the text: as §2
To evaluate whether interferon treatment of macrophages improved other anti-tumor functions, the cytokine secretion of interferon treated or untreated mRNA transfected HER2 CAR macrophages after co-culture with HER2+ breast cancer cells was evaluated. Human macrophages were electroporated with 150 nM HER2 CAR mRNA comprising m6AGCap1 and PsU modifications. […] Supernatant was collected 48 hours after the cancer cells and macrophages were co-cultured and cytokine levels were measured using a Meso Scale Discovery (MSD) instrument.

[4] = system: human macrophages; experiment: Viability of macrophages electroporated or transfected with CAR mRNA (FACS); assay type: cell-based; conditions: day 7
Description: In exemplary methods of the present disclosure, fresh or thawed human macrophages were thawed and cultured at 37° C. overnight one day prior to electroporation. Macrophages were collected and washed with PBS. Viable cells were counted with the NC200. For macrophages transfected using a Neon Transfection System, 50 nM-300 nM of mRNA per 1e+6 macrophages were mixed on ice in electroporation buffer. Macrophages were electroporated with a Neon Transfection System or with a Maxcyte Electroporation system. Cells were kept on ice after for 10 minutes after the electroporation. Cells were collected, counted, and cultured in macrophage culture media for further use. […]
Viability was assessed using Live/Dead Fixable Aqua Dead Cell Staining Kit (Thermo) or similar reagents. Additionally, cell viability was assessed using the NC-200 (Chemometec).
Donor macrophages (HC153444) were differentiated from CD14+ monocytes and the macrophages were transfected with mRNA encoding a CAR (CAR mRNA) using electroporation or transfection. mRNA encoding a CAR comprising a HER2 extracellular domain and a CD3zeta intracellular domain was used. CAR expression and cell viability were detected by FACS on day 1.
Human macrophages were electroporated with HER2 CAR mRNA comprising m6AGCap1 and PsU modifications. […] CAR expression and M1 marker expression were measured on days 2 and 7 after transfection. […]

[5] = system: HER2+ breast cancer cells (CRL2351); experiment: Co-culture cancer cell killing assay with CAR macrophages (Incucyte); assay type: cell-based, human
Description: Target cells such as HER2+ breast cancer cells (CRL2351) or HER2+ ovarian cancer cells stably expressing NucLight Green GFP (Sartorious #4475) were used. Additional cell lines were evaluated that expressed the cognate antigen targeted by the CAR, as described within below. CAR macrophages were co-cultured with target cells at indicated ratios for indicated periods of time. To quantify an anti-tumor effect in vitro, the relative numbers of target cancer cells were measured using the Incucyte live imaging microscope (Sartorius) which monitors the green fluorescent intensity of cultured wells roughly every one hour. The anti-tumor activity of CAR macrophages was compared to control macrophages or target cells alone. Graphpad Prism was used to graph data and perform statistical analysis.
as §1
Macrophages were treated with 0-10 µM sunitinib (an RNAse-L inhibitor) for 2 hours prior to mRNA electroporation or transfection. The level of expression and persistence of expression of the encoded transgene was assessed using methods described above.
Human macrophages were differentiated from CD14+ monocytes and the macrophages were electroporated with mRNA encoding a HER2 CAR (CAR mRNA). […] CRL2351 cell growth was monitored every four hours by its fluorescence.
Human macrophages were electroporated with HER2 CAR mRNA comprising m6AGCap1 and PsU modifications. […] CAR expression and M1 marker expression were measured on days 2 and 7 after transfection. […] Cancer cell growth was monitored via its fluorescence on an Incucyte live imaging microscope every four hours. […]
Five different mRNA modifications were also tested to determine if interferon treatment differentially affected macrophages transfected with mRNA comprising different modifications. […] CAR expression and M1 markers were detected by Flow Cytometry (Attune) on day four after electroporation. […] Cancer cell growth was monitored via its fluorescence on an Incucyte live imaging microscope every four hours.
To evaluate the anti-tumor function of macrophages transfected with mRNA encoding a HER2 CAR with or without priming with IFN-β, untransduced (UTD) or CAR macrophages were primed with 0, 3, 10, 30, or 100 ng/mL IFN-β for 4 hours or 20 hours. These effector cells were then co-cultured with the HER2+ breast cancer cell line CRL2351-GFP at an effector to target ratio of 3:1 or 1.5:1 and anti-tumor activity was measured based on GFP expression using an Incucyte live imaging microscope. […]

[6] = 48 hours and 7 days post-treatment with IL-10
[7] = mRNA transfected CAR macrophages

## IFN-β: recombinant human IFN-β (peprotech), cytokine used to prime CAR macrophages
[1]; 0, 3, 10, 30 or 100 ng/mL
  induction of M1 markers CD80, CD86, and HLA-DR: dose-dependent
[1]; [6]
  M1 marker CD86 after IL-10 treatment: retaining expression of the M1 marker CD86
  M2 marker CD163 after IL-10 treatment: did not express the M2 marker CD163
[1]; CD86 expression
  M1 phenotype, comparison of the interferons evaluated: strongest M1 phenotype
  persistence of M1 phenotype post treatment: at least 7 days
[1]; IFN-β primed CAR macrophages
  response to other M2 inducing factors: resisted other M2 inducing factors
[1]; day 7, relative to no interferon
  expression of M1 markers CD80, CD86 and HLA-DR: increased
[1]; [7]
  M1 phenotype based on CD86 expression: induction of an M1 phenotype
  M2 markers based on CD163 expression: reduction of M2 markers
[2]; 0, 3, 10, 30 or 100 ng/mL for 4 hours, day 4 and day 7
  effect on CAR expression by human macrophages: dose-dependent effect
[2]; day 2
  CAR expression: higher CAR expression
[2]; day 4, all mRNA modifications evaluated
  number of CARs expressed per cell based on CAR MFI: marked increase
[2]; day 4, all modifications
  percentage of cells expressing CAR: modestly improved
[2]; day 7
  HER2 CAR expression: highest level of CAR by a significant margin
  CAR expression: higher CAR expression
[2]; day 7, m6AGCap1/PsU mRNA, versus not treated with IFN-β
  CAR expression rate: significantly improved
[3]
  cytokine secretion: increased secretion of the cytokines IL-6, IL-8 and TNFα
[4]
  cell viability: increased cell viability
[5]; M6AGCap1/PsU mRNA, IFN-alpha, beta or gamma
  cancer cell killing, comparison of interferons: best cancer cell killing
[5]; killing assay 7 days post-electroporation
  cancer killing (decrease in tumor growth): highest level of cancer killing
[5]; priming 0-100 ng/mL for 4 or 20 hours, E:T 3:1 or 1.5:1
  anti-tumor activity of CAR macrophages: improved ability for CAR macrophages to kill cancer cells
[5]; with or without IFN-β treatment
  anti-tumor activity of CAR macrophages across mRNA modifications: improved anti-tumor activity for all CAR macrophages except those transfected with 5moU mRNA
